# Results from PubChem BioAssay AID652083 (The Scripps Research Institute Molecular Screening Center, 2013).
# The list shows a part of the results. The source made the active and inactive calls.
# Tested on: GABA (non-selective)
# Assay: PubChem AID 652083
# Conditions: CEREP radioligand binding panel, % inhibition at 10 uM, stronger effect = higher value
smiles,measurement,value
COC(=O)c1cc(Br)cnc1N1CCC(NC2CCCCC2)C(O)C1 (stereo unspecified),inhibition of specific binding,inactive: -14%
